Laboratory results reported in article PMC12519216.

Biological target: acyl carrier protein (ACP), unacylated form (mouse (endogenous in cerebellum)) (UniProt Q9CR21)
Experiment: SDS-PAGE immunoblot; brain lysates in RIPA buffer, WT and Mecr285/del10 mice; NuPAGE 4 to 12% Bis-Tris gel; blot with ACP antibodies

Work on “acyl carrier protein (ACP), unacylated form (from UniProt Q9CR21 69-156) (natural protein)” yielded a stoichiometry N of 2.
